Data on one substance can be found in patent US8524696B2, “Water-soluble compositions of bioactive lipophilic compounds” (priority 1999, dated 2013).

In data set [1] the test system is lymphocytic Jurkat cell cultures. The conditions noted are these: Jurkat cells; final concentration in the medium up to 200 mg/ml.
Data set [2] concerns neuroblastoma NT2 cell cultures. The conditions noted are these: NT2 cells; final concentration in the medium up to 200 mg/ml.

Turning to “polyoxyethanyl-α-tocopheryl succinate [TPGS]”, the “adverse effects on cell growth or viability” value in data set [1] and in data set [2] was “toxicity” in each case.
